Patent publication US5773569A (Affymax Technologies N.V., priority 1995, dated 1998)

Molecular target: T1, truncated human erythropoietin receptor cell line (Homo sapiens, UniProt P19235)
T1 sequence (P19235 25-468 limits assumed): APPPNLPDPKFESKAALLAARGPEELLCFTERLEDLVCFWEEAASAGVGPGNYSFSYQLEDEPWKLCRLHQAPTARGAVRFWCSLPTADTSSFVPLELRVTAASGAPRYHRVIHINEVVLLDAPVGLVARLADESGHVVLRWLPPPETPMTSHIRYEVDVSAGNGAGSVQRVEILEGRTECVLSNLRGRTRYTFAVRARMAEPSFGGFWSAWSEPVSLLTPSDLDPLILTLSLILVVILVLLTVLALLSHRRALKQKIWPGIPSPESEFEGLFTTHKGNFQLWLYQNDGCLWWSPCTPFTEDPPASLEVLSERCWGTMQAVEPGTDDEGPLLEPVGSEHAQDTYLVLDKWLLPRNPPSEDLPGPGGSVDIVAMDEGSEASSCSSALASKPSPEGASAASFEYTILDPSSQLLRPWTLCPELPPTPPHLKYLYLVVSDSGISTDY
Assay: cell-based

SMILES: CC(C)C[C@@H]1NC(=O)[C@@H]2CCCN2C(=O)CNC(=O)[C@H](Cc2ccccc2)NC(=O)[C@H](Cc2c[nH]cn2)NC(=O)[C@@H](NC(=O)[C@H](CO)NC(=O)[C@H](Cc2ccc(O)cc2)NC(=O)[C@@H](NC(=O)CNC(=O)CN)[C@@H](C)O)CSSC[C@@H](C(=O)N[C@@H](CCCCN)C(=O)N2CCC[C@H]2C(=O)N[C@@H](CCC(N)=O)C(N)=O)NC(=O)[C@H](C(C)C)NC(=O)[C@H](Cc2c[nH]c3ccccc23)NC(=O)[C@H]([C@@H](C)O)NC1=O [RWJ 61596]
- EC50: 20 nM
